# In ChEMBL document CHEMBL5344473, “Inhibition of N-type calcium channels by phenoxyaniline and sulfonamide analogues” (RSC Med Chem, 2024):
# Tested on: COS-7
# Conditions: chlorocebus aethiops, cos-7, 20 h
structure (smiles),measurement,value
FC(F)(F)c1ccc(Oc2ccccc2NCc2ccc(OCCCN3CCCC3)cc2)cc1,CC50,30 µM
